Data as given in PMC12232896 (Angewandte Chemie (International Ed. in English), 2025).
Like-named read-outs stand apart in the source and are kept apart here.

The chains behind the UniProt entries cited, without tags or fusion partners. Where a name states a change or a piece, a line headed by the entry shows the natural chain unless it says otherwise.
UniProt Q8I719: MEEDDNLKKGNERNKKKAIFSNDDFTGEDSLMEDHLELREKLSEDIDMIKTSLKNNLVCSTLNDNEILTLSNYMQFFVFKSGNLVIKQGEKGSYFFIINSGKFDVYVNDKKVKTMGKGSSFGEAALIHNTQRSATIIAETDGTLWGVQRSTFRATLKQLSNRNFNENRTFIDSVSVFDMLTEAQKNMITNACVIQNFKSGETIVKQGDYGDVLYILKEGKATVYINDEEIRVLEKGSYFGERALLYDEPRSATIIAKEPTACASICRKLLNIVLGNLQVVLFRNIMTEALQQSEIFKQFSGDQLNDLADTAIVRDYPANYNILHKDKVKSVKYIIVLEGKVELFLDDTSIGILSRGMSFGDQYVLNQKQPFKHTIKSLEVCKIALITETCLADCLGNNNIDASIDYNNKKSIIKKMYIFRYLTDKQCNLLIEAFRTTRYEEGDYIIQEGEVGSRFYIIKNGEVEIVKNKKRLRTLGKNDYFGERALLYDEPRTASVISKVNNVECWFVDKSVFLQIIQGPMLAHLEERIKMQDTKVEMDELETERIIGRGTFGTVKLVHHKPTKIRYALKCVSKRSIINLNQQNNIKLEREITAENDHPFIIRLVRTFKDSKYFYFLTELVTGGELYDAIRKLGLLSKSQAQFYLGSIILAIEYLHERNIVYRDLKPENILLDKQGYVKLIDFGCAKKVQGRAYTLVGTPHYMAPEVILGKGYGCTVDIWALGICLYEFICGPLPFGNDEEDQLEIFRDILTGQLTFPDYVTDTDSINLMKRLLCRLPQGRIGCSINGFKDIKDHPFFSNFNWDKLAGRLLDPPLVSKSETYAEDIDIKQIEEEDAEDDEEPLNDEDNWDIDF
UniProt O95819: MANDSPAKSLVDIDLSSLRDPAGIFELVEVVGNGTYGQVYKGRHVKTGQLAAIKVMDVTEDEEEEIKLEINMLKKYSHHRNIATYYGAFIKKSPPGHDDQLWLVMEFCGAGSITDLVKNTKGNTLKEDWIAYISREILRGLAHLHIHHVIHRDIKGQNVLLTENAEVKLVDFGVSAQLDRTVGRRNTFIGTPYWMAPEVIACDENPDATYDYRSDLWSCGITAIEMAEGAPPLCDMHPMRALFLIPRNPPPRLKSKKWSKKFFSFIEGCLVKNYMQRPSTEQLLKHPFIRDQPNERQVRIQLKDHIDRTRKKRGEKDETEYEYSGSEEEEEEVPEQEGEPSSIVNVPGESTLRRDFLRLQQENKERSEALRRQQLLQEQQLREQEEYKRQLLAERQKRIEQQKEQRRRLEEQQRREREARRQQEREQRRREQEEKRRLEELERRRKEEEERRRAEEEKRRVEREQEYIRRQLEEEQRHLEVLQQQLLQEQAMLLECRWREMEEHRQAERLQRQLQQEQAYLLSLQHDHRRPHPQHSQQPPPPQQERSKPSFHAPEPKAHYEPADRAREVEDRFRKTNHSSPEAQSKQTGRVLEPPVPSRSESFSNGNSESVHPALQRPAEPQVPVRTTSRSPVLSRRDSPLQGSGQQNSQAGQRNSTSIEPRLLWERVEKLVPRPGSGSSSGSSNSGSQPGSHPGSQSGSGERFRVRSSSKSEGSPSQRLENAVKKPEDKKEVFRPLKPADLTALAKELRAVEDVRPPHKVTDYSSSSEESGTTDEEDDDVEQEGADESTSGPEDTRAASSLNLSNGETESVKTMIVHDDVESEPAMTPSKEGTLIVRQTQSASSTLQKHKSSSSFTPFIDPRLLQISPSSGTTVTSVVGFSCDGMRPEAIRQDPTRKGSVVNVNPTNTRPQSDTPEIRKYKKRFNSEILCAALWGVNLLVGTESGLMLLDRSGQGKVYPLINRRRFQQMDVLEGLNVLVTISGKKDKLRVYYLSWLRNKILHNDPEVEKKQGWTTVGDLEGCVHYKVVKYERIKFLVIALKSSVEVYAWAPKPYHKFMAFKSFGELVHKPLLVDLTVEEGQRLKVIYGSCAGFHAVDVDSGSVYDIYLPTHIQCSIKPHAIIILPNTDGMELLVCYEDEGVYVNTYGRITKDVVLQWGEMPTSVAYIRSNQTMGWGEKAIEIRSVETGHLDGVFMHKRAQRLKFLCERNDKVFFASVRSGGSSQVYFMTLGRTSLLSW
UniProt Q8N4C8: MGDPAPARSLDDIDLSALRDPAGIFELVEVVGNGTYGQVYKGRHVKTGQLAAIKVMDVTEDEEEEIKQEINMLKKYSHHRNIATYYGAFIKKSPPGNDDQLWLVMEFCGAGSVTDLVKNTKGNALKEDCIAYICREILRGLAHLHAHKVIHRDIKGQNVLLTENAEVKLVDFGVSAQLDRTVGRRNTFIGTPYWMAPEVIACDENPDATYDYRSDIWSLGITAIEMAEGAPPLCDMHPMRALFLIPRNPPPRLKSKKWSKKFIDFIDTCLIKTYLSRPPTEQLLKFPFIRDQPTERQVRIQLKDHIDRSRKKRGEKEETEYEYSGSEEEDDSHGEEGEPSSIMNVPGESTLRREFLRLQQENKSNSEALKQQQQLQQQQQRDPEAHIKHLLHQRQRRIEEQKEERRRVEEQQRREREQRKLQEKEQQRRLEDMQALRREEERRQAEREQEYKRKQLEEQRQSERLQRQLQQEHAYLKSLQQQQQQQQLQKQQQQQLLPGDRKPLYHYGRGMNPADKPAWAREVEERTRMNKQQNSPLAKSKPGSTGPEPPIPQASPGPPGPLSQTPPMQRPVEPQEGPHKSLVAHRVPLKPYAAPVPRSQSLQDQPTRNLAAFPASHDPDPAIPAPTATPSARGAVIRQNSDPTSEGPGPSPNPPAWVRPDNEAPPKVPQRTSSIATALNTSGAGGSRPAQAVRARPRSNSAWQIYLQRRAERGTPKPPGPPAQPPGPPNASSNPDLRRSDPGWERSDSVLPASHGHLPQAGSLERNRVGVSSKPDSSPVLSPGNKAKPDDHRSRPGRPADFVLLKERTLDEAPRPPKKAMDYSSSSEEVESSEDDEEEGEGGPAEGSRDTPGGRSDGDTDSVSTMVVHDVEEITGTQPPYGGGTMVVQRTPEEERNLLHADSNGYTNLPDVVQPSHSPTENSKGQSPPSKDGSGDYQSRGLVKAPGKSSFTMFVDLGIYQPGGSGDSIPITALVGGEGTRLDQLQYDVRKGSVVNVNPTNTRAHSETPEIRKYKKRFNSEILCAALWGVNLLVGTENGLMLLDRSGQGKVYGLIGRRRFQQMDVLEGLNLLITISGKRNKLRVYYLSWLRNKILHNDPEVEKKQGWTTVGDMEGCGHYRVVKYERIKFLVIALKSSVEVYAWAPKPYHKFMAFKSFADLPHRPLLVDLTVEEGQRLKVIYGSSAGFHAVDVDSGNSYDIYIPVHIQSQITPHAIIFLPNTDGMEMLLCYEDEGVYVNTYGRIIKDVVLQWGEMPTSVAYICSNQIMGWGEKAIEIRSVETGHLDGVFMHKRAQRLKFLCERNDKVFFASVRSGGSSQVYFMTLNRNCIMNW

Tests used:
[1] = test system: β-haematin (synthetic haemozoin) formation; details: detergent-mediated assay, relative to chloroquine and pyrimethamine controls
[2] = test system: PfK1 ABS parasites; assay: microbe, parasite or virus in culture; details: Plasmodium falciparum, 72 h
[3] = test system: PfDd2 ABS parasites; assay: microbe, parasite or virus in culture; details: Plasmodium falciparum
[4] = molecular target: PfPKG (Plasmodium falciparum, UniProt Q8I719); assay: biochemical
[5] = test system: P. berghei; details: oral, 4 × 50 mg kg^−1
[6] = test system: PfPI4Kβ cKD parasite line; assay: microbe, parasite or virus in culture; details: Plasmodium falciparum, 72 h, read-out: IC50 PfPI4Kβ knockdown
[7] = test system: stage IV and V gametocytes; details: IC90, 24 h, untreated 8.8 ± 0.2 µm
[8] = test system: oocyst formation in A. coluzzii fed PfNF54 gametocyte-infected blood; details: 2 µM for 48 h before feeding, mean ± SD
[9] = test system: PfNF54 male gamete exflagellation; assay: microbe, parasite or virus in culture; details: Plasmodium falciparum, read-out: inhibition of male gamete exflagellation
[10] = in vitro; details: human, HepG2 cells
[11] = in vitro; details: Chinese hamster
[12] = test system: PfNF54 ABS parasites; assay: microbe, parasite or virus in culture; details: Plasmodium falciparum, 72 h
[13] = test system: hERG potassium channel; details: read-out: hERG IC50; cited from earlier work
[14] = test system: P. falciparum gametocytes (luciferase reporter line 3D7elo1-pfs16-CBG99); assay: microbe, parasite or virus in culture; details: Plasmodium falciparum, 48 h
[15] = molecular target: T1, HsMAP4K4 (Homo sapiens, UniProt O95819); assay: HsMAP4K4 ADP-Glo kinase assay; format: biochemical; details: 10 µM ATP, read-out: enzyme inhibition HsMAP4K4
T1 construct: purchased Reaction Biology
Method: (§1) Reactions were carried out at 10 μM ATP.

[16] = molecular target: T2, HsMINK1 (Homo sapiens, UniProt Q8N4C8); assay: HsMINK1 ADP-Glo kinase assay; format: biochemical; details: 10 µM ATP, read-out: enzyme inhibition HsMINK1
T2 construct: purchased Reaction Biology
Method: as §1

[17] = in vivo; details: Balb/C, mouse
[18] = test system: late-stage gametocytes; details: read-out: late-stage gametocyte activity (PrestoBlue); PrestoBlue cell viability platform; cited from earlier work
[19] = test system: Pf3D7 strain; details: Pf3D7, 10× IC50, 48 h
[20] = test system: PfPI4Kβ cKD parasite line; details: cited from earlier work

Question: Which results are given for `CN(C)CCCOc1ccc(-c2ccc3ncc4c(c3c2)n(C2CCOCC2)c(=O)n4C)cn1` [AZD0156]?
Answer: inhibition of β-haematin formation [1]: not to inhibit; IC50 [2]: 0.415 ± 0.023 µM; IC50 ([3]; 72 h): 0.136 ± 0.007 µM; IC50 ([3]; read-out: IC50 PfDd2 parental line): 0.121 ± 0.013 µM; IC50 [4]: > 10 µM; reduction in parasitaemia [5]: 81%; IC50 [6]: 0.03 ± 0.002 µM; mean gametocyte length after treatment [7]: 5.4 ± 0.4 µm; transmission-blocking activity (reduction in oocyst prevalence) [8]: 56 ± 6%; transmission-reducing activity (reduction in oocyst intensity) [8]: 82 ± 5%; inhibition at 2 µM [9]: 90%; viability at 24 h, 2 µM [10]: 96%; IC50 [11]: 11.7 µM; IC50 [12]: 0.335 ± 0.023 µM; IC50 [13]: > 30 µM; IC50 ([14]; read-out: IC50 late-stage gametocytes): 0.943 ± 0.041 µM; IC50 ([14]; read-out: IC50 mature gametocytes): 0.384 ± 0.037 µM; inhibition at 10 µM [15]: < 50%; inhibition at 10 µM [16]: < 50%; AUC ([17]; iv, 3 mg/kg): 8.53 µM·h; AUC ([17]; po, 10 mg/kg): 14.2 µM·h; Cmax ([17]; po, 10 mg/kg): 3 µM; IC50 [18]: 0.236 µM; in vitro logPRR [19]: 1.3

Question: Which “fold shift on PfPI4Kβ cKD” value [20] does the source give for `CC(C)n1nc(-c2ccc3oc(N)nc3c2)c2c(N)ncnc21` [sapanisertib] here?
Answer: > 10 fold
